The numbers were not newly measured in US20040157796A1 (published 2004), which cites them from elsewhere.

Sequences of proteins named here, by UniProt entry; tags and fusion partners are left off. Residues count along the entry.
UniProt P35354, 18-604: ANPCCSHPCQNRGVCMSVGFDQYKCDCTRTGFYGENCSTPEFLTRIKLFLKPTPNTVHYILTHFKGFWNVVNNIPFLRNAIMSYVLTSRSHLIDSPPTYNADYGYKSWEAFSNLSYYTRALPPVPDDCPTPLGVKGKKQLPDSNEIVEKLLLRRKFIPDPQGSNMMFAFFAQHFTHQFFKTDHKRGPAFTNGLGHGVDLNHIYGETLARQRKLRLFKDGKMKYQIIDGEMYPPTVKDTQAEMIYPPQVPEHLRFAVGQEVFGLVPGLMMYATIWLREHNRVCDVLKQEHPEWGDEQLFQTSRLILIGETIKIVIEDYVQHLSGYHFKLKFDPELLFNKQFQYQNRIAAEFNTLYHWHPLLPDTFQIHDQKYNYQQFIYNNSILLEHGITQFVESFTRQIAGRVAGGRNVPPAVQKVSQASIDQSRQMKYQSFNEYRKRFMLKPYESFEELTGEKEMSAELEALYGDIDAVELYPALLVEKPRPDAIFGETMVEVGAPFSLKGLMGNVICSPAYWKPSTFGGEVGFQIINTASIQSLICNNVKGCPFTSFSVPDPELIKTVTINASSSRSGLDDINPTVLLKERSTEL

This series deals with COX-2 (Homo sapiens, UniProt P35354).

Consider `CCC(=O)NS(=O)(=O)c1ccc(-c2c(-c3ccccc3)noc2C)cc1` [Parecoxib, N-[[4-(5-methyl-3-phenylisoxazol-4-yl)phenyl]sulfonyl]propanamide], for which the “in vitro inhibitory activity against COX-2” value was “weak in vitro inhibitory activity”.
